By UniProt entry, the sequences of proteins in these tests, tags left out. Residues count along the entry.
UniProt P17181, 28-436: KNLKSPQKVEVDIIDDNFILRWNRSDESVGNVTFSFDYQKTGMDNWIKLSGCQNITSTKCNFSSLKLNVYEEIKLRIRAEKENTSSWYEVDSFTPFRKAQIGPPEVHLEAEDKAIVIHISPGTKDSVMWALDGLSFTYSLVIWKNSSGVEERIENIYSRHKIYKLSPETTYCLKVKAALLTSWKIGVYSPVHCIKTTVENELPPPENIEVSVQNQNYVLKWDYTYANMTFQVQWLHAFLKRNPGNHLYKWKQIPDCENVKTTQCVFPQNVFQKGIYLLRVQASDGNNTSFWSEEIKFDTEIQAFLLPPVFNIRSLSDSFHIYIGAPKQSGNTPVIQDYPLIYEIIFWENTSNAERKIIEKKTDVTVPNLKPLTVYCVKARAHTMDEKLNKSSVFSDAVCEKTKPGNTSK

In article PMC5373932:

Molecular target: recombinant type I interferon receptor subunit extracellular domain IFNAR1-EC (UniProt P17181)
Assay: SPR

## super-compound interferon-I (sIFN-I) (ligand)
  pKd: 6.22

pKd: −log10 of the molar value.
